The numbers were not newly measured in publication PMC6957207, which cites them from elsewhere.

The data set has as its target CaMKII 300-312 (UniProt P11275).

In general, Kd refers to a measure of binding affinity in units of concentration. For calmodulin (from UniProt P0DP23), the Kd was 5.9 µM.
